Source: US10988485B2 (Amgen Inc., priority 2018, dated 2021)
pIC50: −log10 of the molar value.

Chains of the proteins cited; added tags and fusions are not shown. Residues count along the entry.
UniProt P01116, 1-169 isoform 2 C118A/G12C limits assumed: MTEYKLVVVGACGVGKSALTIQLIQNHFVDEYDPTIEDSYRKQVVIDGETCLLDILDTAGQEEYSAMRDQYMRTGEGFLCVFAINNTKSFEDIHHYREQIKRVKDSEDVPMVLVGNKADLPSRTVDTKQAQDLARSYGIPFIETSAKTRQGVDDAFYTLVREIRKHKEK

Assays:
[1] = target: GDP-bound KRAS protein (aa 1-169), containing both G12C and C118A amino acid substitutions (Homo sapiens, UniProt P01116, C118A/G12C); experiment: Coupled Nucleotide Exchange Assay (SOS-mediated nucleotide exchange, AlphaScreen); conditions: read-out: Coupled Exchange IC50; compound pre-incubation either 5 min or 2 hours (not stated per compound); SOS and GTP added, cRAF AlphaScreen read-out
Protocol: (§1) For compounds in Table 6, the following assay conditions were employed:
Coupled Nucleotide Exchange Assay: Purified GDP-bound KRAS protein (aa 1-169), containing both G12C and C118A amino acid substitutions and an N-terminal His-tag, was pre-incubated in assay buffer (25 mM HEPES pH 7.4, 10 mM MgCl2, and 0.01% Triton X-100) with a compound dose-response titration for either 5 min or 2 hours (see Table 15). Following compound pre-incubation, purified SOS protein (aa 564-1049) and GTP (Roche 10106399001) were added to the assay wells and incubated for an additional 30 min (for 5 min compound pre-incubation) or 1 hour (for 2 hour compound pre-incubation). To determine the extent of inhibition of SOS-mediated nucleotide exchange, purified GST-tagged cRAF (aa 1-149), nickel chelate AlphaLISA acceptor beads (PerkinElmer AL108R), and AlphaScreen glutathione donor beads (PerkinElmer 6765302) were added to the assay wells and incubated for 10 minutes. The assay plates were then read on a PerkinElmer EnVision Multilabel Reader, using AlphaScreen® technology, and data were analyzed using a 4-parameter logistic model to calculate IC50 values.

[2] = tested on: Phosphorylation of ERK1/2 in MIA PaCa-2 cells; experiment: Phospho-ERK1/2 MSD Assay; conditions: read-out: p-ERK IC50 (MIA-PaCa-2), compound 2 or 4 hours, then 10 ng/mL EGF for 10 min
Protocol: as §1
Phospho-ERK1/2 MSD Assay: MIA PaCa-2 (ATCC® CRL-1420™) cells were cultured in RPMI 1640 Medium (ThermoFisher Scientific 11875093) containing 10% fetal bovine serum (ThermoFisher Scientific 16000044) and 1× penicillin-streptomycin-glutamine (ThermoFisher Scientific 10378016). Sixteen hours prior to compound treatment, MIA PaCa-2 cells were seeded in 96-well cell culture plates at a density of 25,000 cells/well and incubated at 37° C., 5% CO2. A compound dose-response titration was diluted in growth media, added to appropriate wells of a cell culture plate, and then incubated at 37° C., 5% CO2 for 2 or 4 hours. Following compound treatment, cells were stimulated with 10 ng/mL EGF (Roche 11376454001) for 10 min, washed with ice-cold Dulbecco's phosphate-buffered saline, no Ca^2+ or Mg^2+ (ThermoFisher Scientific 14190144), and then lysed in RIPA buffer (50 mM Tris-HCl pH 7.5, 1% Igepal, 0.5% sodium deoxycholate, 150 mM NaCl, and 0.5% sodium dodecyl sulfate) containing protease inhibitors (Roche 4693132001) and phosphatase inhibitors (Roche 4906837001). […] Assay plates were read on a Meso Scale Discovery Sector imager 6000, and data were analyzed using a 4-parameter logistic model to calculate IC50 values.

C=CC(=O)N1C[C@H](C)N(C2=NS(=O)(=O)N(c3ccc(CN(C)C)cc3C(C)(C)C)c3nc(-c4ccccc4F)c(Cl)cc32)C[C@H]1C
pIC50 [1]: 7.10 | pIC50 [2]: 7.15
